Only a part is listed here, and it is no random draw. Some of these compounds have results that are not shown, active ones among them. Active and inactive are the calls of the source.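 The calls were made as follows: active = inhibition or corrected inhibition above about 18%, plus a signal ratio from 0.5 to 1.5 (limit read from the data, passing the limit was not always enough); inactive = the rest.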

By UniProt entry, the sequences of proteins in these tests, tags left out.
UniProt O14786, whole entry: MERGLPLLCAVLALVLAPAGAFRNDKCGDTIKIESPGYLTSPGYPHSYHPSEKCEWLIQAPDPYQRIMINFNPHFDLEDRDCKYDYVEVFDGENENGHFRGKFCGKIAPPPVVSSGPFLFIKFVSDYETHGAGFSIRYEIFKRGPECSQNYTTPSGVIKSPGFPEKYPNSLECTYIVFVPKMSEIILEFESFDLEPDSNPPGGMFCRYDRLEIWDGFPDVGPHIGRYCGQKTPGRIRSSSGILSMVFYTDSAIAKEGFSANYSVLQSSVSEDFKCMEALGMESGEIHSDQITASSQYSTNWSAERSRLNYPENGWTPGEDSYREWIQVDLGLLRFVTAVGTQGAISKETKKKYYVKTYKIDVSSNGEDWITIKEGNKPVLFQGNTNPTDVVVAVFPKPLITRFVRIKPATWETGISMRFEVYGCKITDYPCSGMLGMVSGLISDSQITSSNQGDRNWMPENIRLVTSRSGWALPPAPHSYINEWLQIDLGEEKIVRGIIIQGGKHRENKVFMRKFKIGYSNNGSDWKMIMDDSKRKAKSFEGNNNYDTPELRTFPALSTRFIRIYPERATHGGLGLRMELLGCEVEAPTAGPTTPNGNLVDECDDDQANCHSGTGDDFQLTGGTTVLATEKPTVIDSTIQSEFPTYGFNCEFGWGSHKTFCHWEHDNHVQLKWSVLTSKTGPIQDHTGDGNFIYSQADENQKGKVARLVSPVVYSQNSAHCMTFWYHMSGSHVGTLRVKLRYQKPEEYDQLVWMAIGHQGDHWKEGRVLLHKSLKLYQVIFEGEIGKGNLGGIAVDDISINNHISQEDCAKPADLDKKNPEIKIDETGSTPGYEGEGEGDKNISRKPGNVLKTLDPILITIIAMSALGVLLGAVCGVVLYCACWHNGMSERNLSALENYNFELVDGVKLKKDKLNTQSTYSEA

The values that follow come from PubChem BioAssay AID602438 (Sanford-Burnham Center for Chemical Genomics, 2012).

This experiment concerns the target Neuropilin-1 (Homo sapiens) (UniProt O14786). Kind of experiment: modulators of CendR peptide binding to NRP-1, primary screen, biochemical, fluorescence polarization, uHTS (AID 602438). Conditions: FAM-RPARPAR peptide binding to NRP-1, fluorescence polarization; at 25 µM; hits give high values. In general terms: In fluorescence polarisation assays a small probe gives low polarisation when free and higher when bound to something large.
As to `COc1ccc(Br)c(C(=O)NCC2(N3CCCCC3)CCCCC2)c1`, the inhibition is inactive: -18.9%.

Turning to `C=C(C)C#CC(O)(C(=O)OC1CCN(C)CC1)c1ccccc1` (stereo unspecified), the inhibition was inactive: -4%.

`CN(C)c1cccc(C(=O)NCC2(N(C)C)CCCCC2)c1`: the inhibition was inactive: 9.7%.

Regarding `O=C(OCCN1CCCC1)C(O)(c1ccccc1)c1ccccc1`, the inhibition was inactive: 16.4%.

Take `CC(C)Oc1ccc(C(=O)NCC2(N(C)C)CCCCC2)cc1`: the inhibition was inactive: 7.9%.

`O=C(OC1CN2CCC1CC2)C(CO)(c1ccccc1)c1ccccc1` (stereo unspecified): the inhibition is inactive: -2.1%.

As to `COc1ccc(Cl)cc1C(=O)NCC1(N(C)C)CCCCC1`, the inhibition was inactive: -2.6%.

As to `COc1cccc(C(=O)NCC2(N3CCCCC3)CCCCC2)c1`, the inhibition was inactive: -14.2%.

For the compound `O=C(NCC1(N2CCCCC2)CCCCC1)c1cccc(Cl)c1`, the inhibition was inactive: 5.5%.

For `CN(C)C1(CNC(=O)c2ccc(Br)cc2)CCCCC1`, the inhibition was inactive: 14.5%.

As to `COc1cc(C(=O)NCC2(N(C)C)CCCCC2)c([N+](=O)[O-])cc1OC`, the inhibition was inactive: 6.8%.

As to `O=C(NCC1(N2CCCCC2)CCCCC1)c1cc(F)c(F)cc1Cl`, the inhibition was inactive: -5.1%.

With `C=CCN1CCN(CCOC(=O)C(O)(c2ccccc2)c2ccccc2)CC1`, the inhibition was inactive: -2.6%.

As to `O=C(NCC1(N2CCCCC2)CCCCC1)c1cccc(Br)c1`, the inhibition was inactive: 11.3%.

As to `Cc1cc(C(=O)NCC2(N3CCCCC3)CCCCC2)ccc1[N+](=O)[O-]`, the inhibition was inactive: 4.2%.

For `CCN1CCCC(OC(=O)C2(O)c3ccccc3C=Cc3ccccc32)C1` (stereo unspecified), the inhibition was inactive: 7%.

Consider `COc1ccc(C(=O)NCC2(N(C)C)CCCCC2)cc1`, for which the inhibition is inactive: 0.8%.

Consider `CN(C)C1CCCC1OC(=O)C(O)(c1ccccc1)c1ccccc1` (stereo unspecified), for which the inhibition was inactive: 4.8%.

In the case of `CN(C)c1ccc(C(=O)NCC2(N(C)C)CCCCC2)cc1`, the inhibition is inactive: 4.9%.

For `Cc1ccccc1C(=O)NCC1(N2CCCCC2)CCCCC1`, the inhibition is inactive: 21%.

On to `CC(C)N1C(=O)CC2(CCN(CCOC(=O)C(O)(c3ccccc3)c3ccccc3)CC2)C1=O`, for which the inhibition is inactive: -18.6%.

Take `COc1cc(SC)ccc1C(=O)NCC1(N(C)C)CCCCC1`: the inhibition was inactive: 6.3%.

For `CCN(CC)CC(C)C(C)OC(=O)C(O)(c1ccccc1)c1ccccc1` (stereo unspecified), the inhibition is inactive: 10.8%.

Take `Cc1ccc(C(=O)NCC2(N3CCCCC3)CCCCC2)cc1`: the inhibition was inactive: -6.1%.

For `O=C(NCC1(N2CCCCC2)CCCCC1)c1cc([N+](=O)[O-])ccc1Cl`, the inhibition is inactive: -16.2%.

As for `CN1[C@@H]2CC[C@H]1CC(OC(=O)C(O)(c1ccccc1)c1ccccc1)C2` (stereo partly specified), the inhibition was inactive: -2.7%.

A word on the inhibition: it is the drop in the measured response relative to a control, in per cent.
